Patent US8841257B2, “Inhibitors of STAT3 and uses thereof” (Board of Regents, The University of Texas System, priority 2009, dated 2014)

Chains of the proteins cited; added tags and fusions are not shown.
UniProt P40763, whole entry: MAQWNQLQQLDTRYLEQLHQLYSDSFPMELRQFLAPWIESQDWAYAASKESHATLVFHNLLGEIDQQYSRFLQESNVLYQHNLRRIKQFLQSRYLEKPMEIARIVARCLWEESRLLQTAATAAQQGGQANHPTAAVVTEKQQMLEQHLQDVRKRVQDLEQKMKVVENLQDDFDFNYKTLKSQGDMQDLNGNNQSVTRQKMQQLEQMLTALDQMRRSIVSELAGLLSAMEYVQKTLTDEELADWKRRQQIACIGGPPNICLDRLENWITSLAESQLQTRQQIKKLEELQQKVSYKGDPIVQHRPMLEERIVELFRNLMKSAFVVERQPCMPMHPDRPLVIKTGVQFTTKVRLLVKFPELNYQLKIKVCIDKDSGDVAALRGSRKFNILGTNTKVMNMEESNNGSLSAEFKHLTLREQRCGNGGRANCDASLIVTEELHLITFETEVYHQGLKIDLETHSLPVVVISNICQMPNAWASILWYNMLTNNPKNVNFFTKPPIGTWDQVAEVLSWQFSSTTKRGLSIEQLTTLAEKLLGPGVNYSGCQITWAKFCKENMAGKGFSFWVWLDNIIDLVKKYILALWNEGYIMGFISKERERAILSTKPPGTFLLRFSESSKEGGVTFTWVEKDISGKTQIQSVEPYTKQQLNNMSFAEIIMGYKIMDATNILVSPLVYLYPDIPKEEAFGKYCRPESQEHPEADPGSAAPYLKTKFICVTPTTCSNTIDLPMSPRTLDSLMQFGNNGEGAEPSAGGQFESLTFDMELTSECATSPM

Biological target: full length STAT3 (Homo sapiens, UniProt P40763)
Experiment: Fluorescence polarization competition assay for binding to STAT3
Conditions: read-out: IC50 (nM), affinity of peptidomimetics for STAT3; competition with FAM-Ala-pTyr-Leu-Pro-Gln-Thr-Val-NH2; mean of three ± standard deviation

Structure (SMILES) | IC50 [nM]
C/C(=C\C(=O)N[C@@H](CC(C)C)C(=O)N1C[C@H]2C[C@H]2[C@H]1C(=O)NCCOC(N)=O)c1ccc(OP(=O)(O)O)cc1 | 206
C/C(=C\C(=O)N[C@@H](CC(C)C)C(=O)N1CCC[C@H]1C(=O)NCCOC(N)=O)c1ccc(OP(=O)(O)O)cc1 | 216
C/C(=C\C(=O)N[C@@H](CC(C)C)C(=O)N1CCC[C@H]1C(=O)NCCNC(N)=O)c1ccc(OP(=O)(O)O)cc1 | 100
C/C(=C\C(=O)N[C@H]1CCc2cccc3c2N(C1=O)[C@H](C(=O)N[C@H](C)CCC(N)=O)C3)c1ccc(OP(=O)(O)O)cc1 | 112
C/C(=C\C(=O)N[C@H]1CCc2cccc3c2N(C1=O)[C@H](C(=O)NCCOC(N)=O)C3)c1ccc(OP(=O)(O)O)cc1 | 201
C/C(=C\C(=O)N[C@H]1CCc2cccc3c2N(C1=O)[C@H](C(=O)NCCNC(N)=O)C3)c1ccc(OP(=O)(O)O)cc1 | 412
C/C(=C\C(=O)N[C@@H](CC(C)C)C(=O)N1C[C@H]2C[C@H]2[C@H]1C(=O)N[C@H](C)CCC(N)=O)c1ccc(OP(=O)(O)O)cc1 | 88
CCCC[C@H](NC(=O)/C=C(\C)c1ccc(OP(=O)(O)O)cc1)C(=O)N1C[C@H]2C[C@H]2[C@H]1C(=O)N[C@H](C)CCC(N)=O | 70
CCCC[C@H](NC(=O)/C=C(\C)c1ccc(OP(=O)(O)O)cc1)C(=O)N1C[C@H]2C[C@H]2[C@H]1C(=O)NCCOC(N)=O | 122
C/C(=C\C(=O)N[C@@H](CC(C)C)C(=O)N1C[C@H]2C[C@H]2[C@H]1C(=O)NCCNC(N)=O)c1ccc(OP(=O)(O)O)cc1 | 42
C/C(=C\C(=O)N[C@@H](CC(C)C)C(=O)N1CCC[C@H]1C(=O)N[C@H](C)CCC(N)=O)c1ccc(OP(=O)(O)O)cc1 | 154
